The record followed here is ChEMBL document CHEMBL3877269, “Structure-activity relationships and optimization of acyclic acylphloroglucinol analogues as novel antimicrobial agents” (Eur J Med Chem, 2017).

Values after ≈ are worked out from the molar mass of the structure shown.

This assay has as its system Staphylococcus aureus. Description: Antibacterial activity against methicillin-resistant Staphylococcus aureus JCSC 2172 after 8 to 12 hrs by resazurin dye based microdilution method. It is filed as functional. (Alamar Blue is a resazurin reagent that responds to reducing activity.)

By MIC is commonly meant the lowest concentration found to suppress growth. A lower MIC goes with greater potency.

`CC[C@H](C)[C@H](NC(=O)CN)C(=O)NCC(=O)N[C@@H](C)C(=O)N[C@H](C(=O)N[C@@H](CC(C)C)C(=O)N[C@@H](CCCCN)C(=O)N[C@H](C(=O)N[C@@H](CC(C)C)C(=O)N[C@H](C(=O)N[C@H](C(=O)NCC(=O)N[C@@H](CC(C)C)C(=O)N1CCC[C@H]1C(=O)N[C@@H](C)C(=O)N[C@@H](CC(C)C)C(=O)N[C@H](C(=O)N[C@@H](CO)C(=O)N[C@@H](Cc1c[nH]c2ccccc12)C(=O)N[C@H](C(=O)N[C@@H](CCCCN)C(=O)N[C@@H](CCCNC(=N)N)C(=O)N[C@@H](CCCCN)C(=O)N[C@@H](CCCNC(=N)N)C(=O)N[C@@H](CCC(N)=O)C(=O)N[C@@H](CCC(N)=O)C(N)=O)[C@@H](C)CC)[C@@H](C)CC)[C@@H](C)O)[C@@H](C)O)C(C)C)C(C)C` [MELITTIN] gave an MIC of 1.25 µg/mL (≈ 0.439 µM).
